Measured values as given in patent US20140128380A1, “METHODS OF MODULATING THE ACTIVITY OF THE MC1 RECEPTOR AND TREATMENT OF CONDITIONS RELATED TO THIS RECEPTOR” (Mimetica Pty Ltd, priority 2009, published 2014).

By UniProt entry, the sequences of proteins in these tests, tags left out. Where a name states a change or a piece, a line headed by the entry shows the natural chain unless it says otherwise.
UniProt Q01726: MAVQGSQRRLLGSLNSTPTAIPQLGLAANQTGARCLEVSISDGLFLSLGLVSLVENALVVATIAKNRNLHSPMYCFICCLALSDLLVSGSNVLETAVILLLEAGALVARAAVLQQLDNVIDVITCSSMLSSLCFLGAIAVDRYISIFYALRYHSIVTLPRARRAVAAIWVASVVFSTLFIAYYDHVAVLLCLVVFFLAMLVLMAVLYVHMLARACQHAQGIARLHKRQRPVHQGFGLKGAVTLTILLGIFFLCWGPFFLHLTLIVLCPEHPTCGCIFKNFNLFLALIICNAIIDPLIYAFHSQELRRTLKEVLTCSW

Target: T1, human MC1R (hMC1R) (Homo sapiens, UniProt Q01726)
T1 construct: purchased Perkin Elmer ES-195-M400UA
Test: Human MC1R radioligand binding assay (displacement of 125I-labeled NDP-MSH, Perkin Elmer hMC1R membranes)
Details: displacement of [125I]NDP-MSH, compounds tested as trifluoroacetate or hydrochloride salts or free base
Procedure: Assessments of compound binding to human MC1R (hMC1R)) by displacement of an ^125I-labeled NDP-MSH receptor ligand peptide were performed essentially as described in the data sheets produced by Perkin Elmer to accompany their frozen hMC1R membranes (Perkin Elmer catalog number ES-195-M400UA).
[^125I] NDP-MSH: radiolabeled in house and purified by HPLC:
Na ^125I (0.5 mCi, 17.4 Ci/mg) was added to 50 μL sodium phosphate (50 mM, pH 7.4) in an eppendorf tube precoated with IODOGEN. After incubation for 10 mins the phosphate buffer containing the iodine was added to NDP-MSH (10 ul at 1 mg/mL) in a separate eppendorf tube. This was incubated for a further 10 mins. The iodinated NDP-MSH was purified by HPLC on a Zorbax SB 300 column using solvent A: 0.05% TFA and solvent B: 90% acetonitrile 0.045% TFA with a linear gradient, 0-67% B over 60 mins. The ^125I NDP-MSH eluted at 52 mins after the unlabeled starting material (48 min) and was counted and stored in the freezer.
Incubation buffer: 25 mM HEPES-KOH (pH 7.0), 1.5 mM CaCl2, 1 mM MgSO4, 0.1 M NaCl, 1 mM 1,10-phenanthroline, and 1 Complete™ protease inhibitor tablet/100 mL (Roche, catalog number 1873580)
Perkin Elmer frozen hMC1 membranes: catalog number ES-195-M400UA, 0.4 mL/vial; 400 microassays/vial, 0.78 mg/mL protein concentration […]

## O=C(NC[C@@H]1CCN(CC(c2ccccc2)c2ccccc2)C(=O)[C@H](CCCN2CCCCC2)N1)c1ccc2ccccc2c1 [Compound 106, N-(((3S,5S)-1-(2,2-diphenylethyl)-2-oxo-3-(3-(piperidin-1-yl)propyl)-1,4-diazepan-5-yl)methyl)-2-naphthamide]
  IC50: < 10 µM
